From PubChem
The list is not random: actives were taken first. Their share in the collection is about 2.1%.
PTAP TSG101 blk = blocks PTAP/TSG101 interaction to inhibit HIV-1 budding; Q99816; Fluorescence polarization, FITC-PTAP peptide / Tsg101 binding; Potency, µM (top dose mostly 115 µM), without a hit: at the highest dose activity change, negative = inhibition, hits mostly inhibitors; 340,000 tested, under 10 active; AID 493005; active = well fitted inhibition curve with a large enough effect in the main read-out, with a control signal flat, not every such curve was filed as active; inconclusive = small, poorly fitted or top-dose-only effect, or effect the other way, or a change in a side signal; inactive = no such curve, though single readings can be large or run the other way; also: potency is read from the fitted curve at half-maximal effect; % of control where 0% means no effect
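Steps: Tsg101 binding domain dispensed (10 uM final), compounds pinned in DMSO, FITC-labeled PTAP-motif peptide added (50 nM final); after 20 min binding at room temperature, polarization measured.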
A549 viability = counter-screen for Nrf2 inhibitors: cytotoxicity in A549 cells. Potency, µM (top dose mostly 46 µM), without a hit: at the top dose activity change, negative = cytotoxicity, usual class: inhibitors. 0.16% of 390,000 active. A549 ARE-Fluc cells, CellTiter-Fluor viability, 18-24 h; also: potency is read from the fitted curve at half-maximal effect; % is scaled to controls: 0 for no effect and ±100 for the full control effect
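A549 ARE-Fluc cells in 5% FBS OPTI-MEM, 5000 cells/well, rested 2 h then exposed to compounds in concentration-response for 18-24 h at 37 °C. Viability by CellTiter-Fluor fluorescence (Ex 405/Em 525) after 30 min; luciferase luminescence (BugLite, 15 min, RT) read afterwards.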
Nrf2 inh = inhibitors of Nrf2 signaling; 2.1% of 360,000 active; A549 ARE-Fluc reporter, luciferase luminescence, 18-24 h; Potency, µM (series often up to 46 µM), without a hit: at the highest dose activity change, negative = inhibition, hits mostly inhibitors; also: potency is read from the fitted curve at half-maximal effect; % is scaled to controls: 0 for no effect and ±100 for the full control effect; nearly all actives have a fitted effect of over 60% in size
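In this cell-based qHTS, ARE-driven firefly luciferase in A549 cells reports Nrf2 activity; the luminescent signal after BugLite lysis is the measured value, with a prior CellTiter-Fluor read for cell health.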
Nrf2 activator = activates Nrf2 signaling; AREc32 ARE-luciferase reporter (MCF7-derived line), luminescence, 24 h; Potency, µM (series often up to 46.1 µM), for inactives: at the highest dose activation, most hits filed as activators; 0.31% of 410,000 active; also: potency is read from the fitted curve at half-maximal effect; % of control where 0% means no effect; nearly all actives have a fitted effect of over 65% in size
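Luciferase luminescence (Steady-Glo, 30 min at room temperature) served as the read-out of ARE activation in AREc32 cells treated with compounds for 24 hr at 37 deg C.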
Glioma ERSR ind = inducers of ER stress response in human glioma cells. U87-MG GRP78 promoter luciferase reporter, 16 h. Potency, µM, for the others: at the top dose activation, usual class: activators. 0.02% of 420,000 active; also: potency is read from the fitted curve at half-maximal effect; series mostly up to about 76 µM; % of control where 0% means no effect; nearly all actives have a fitted effect of over 35% in size
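Stably transfected U87-MG human glioma cells carrying a GRP78-based luminescent sensor were seeded at 1000 cells/well, pin-dosed with compounds and incubated 16 h. Luciferase reagent was then added, and end-point luminescence was read after 10 min at room temperature.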
miR-21 FLuc = raises the signal of a miR-21 reporter; HeLa miR-21 FLuc reporter, luciferase, 48 h; Potency, µM (top dose mostly 38.3 µM), for inactives: at the highest dose reporter change, positive = more light; AID 2288; 340,000 tested, under 10 active; active = well fitted rising curve with a large enough effect; inconclusive = small, poorly fitted or top-dose-only effect; inactive = no such curve, though single readings can be large or run the other way;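 note: % of control where 0% means no effect; miR-21 action dims this reporter so a rising signal means less miR-21 action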
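Luminescence from a firefly luciferase reporter carrying a miR-21 binding site downstream, stably expressed under a CMV promoter in HeLa cells that make miR-21 endogenously, reports miRNA modulation after 48 h compound exposure up to approximately 40uM final.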
* marks the source's active call; other numbers are inactive results; ? = inconclusive; / = no result given; [ ] = another dose, or the depositor's remark. Unless noted, calls follow the shape of the dose curve; as a rule, active = well fitted curve in the direction sought with a large enough effect; inconclusive = small, poorly fitted or top-dose-only effect, or another doubt; inactive = no such curve, though single readings can be large; an effect the other way counts as inactive or inconclusive.

1) O=C(Nc1nc2ccsc2c(=O)s1)c1ccco1
2) O=C(Nc1nc2ccc(Br)cc2s1)c1ccco1
3) O=c1c2ccccc2cnn1-c1nc2ccccc2[nH]1
4) O=c1c(Cl)c(N2CCCCC2)cnn1-c1nc2ccccc2[nH]1
5) Cc1ccccc1-n1cc(CNC(=O)CN2Cc3ccccc3OC(C)C2)cn1 (stereo not given)
6) Cc1ccc(S(=O)(=O)N2C[C@@H]3[C@H]4CC[C@H](C4)[C@@H]3[C@@H](C)[C@H]2c2ccco2)cc1
7) CC[C@H]1OC(=O)C[C@@H](O)[C@H](C)[C@@H](O[C@@H]2O[C@H](C)C[C@H](N(C)C)[C@@H]2O)[C@@H](CC=O)C[C@@H](C)C(=O)/C=C\[C@]2(C)O[C@H]2[C@@H]1C
8) N#Cc1ccc(OCC(O)CN2CCN(c3ncc(C(F)(F)F)cc3Cl)CC2)cc1 (stereo not given)

assay / compound | 1 | 2 | 3 | 4 | 5 | 6 | 7 | 8
PTAP TSG101 blk | 0.8% | -2.0% | -5.4% | 1.3% | / | -1.3% | / | -3.2%
A549 viability | -0.6% | -6.5% | -0.9% | -1.4% | / | 15.4% | / | -14.0%
Nrf2 inh | ? | ? | ? | 16.4µM* | / | 20.6µM* | / | 18.4µM*
Nrf2 activator | 1.26µM* | 7.94µM* | -2.9% | -1.6% | / | 4.7% | / | 2.5%
Glioma ERSR ind | 6.2% | -6.6% | -14.1% | -11.2% | -5.7% | 0.2% | -6.6% | 0.1%
miR-21 FLuc | -24.3% | -28.2% | ? | 18.7% | / | / | / | ?

Profiles from above. Values in the order: PTAP TSG101 blk | A549 viability | Nrf2 inh | Nrf2 activator | Glioma ERSR ind | miR-21 FLuc
Profile of Cc1ccccc1-n1cc(CNC(=O)CN2Cc3ccccc3OC(C)C2)cn1 (stereo not given) = / | / | / | / | -5.7% | /
Profile of O=c1c2ccccc2cnn1-c1nc2ccccc2[nH]1 = -5.4% | -0.9% | ? | -2.9% | -14.1% | ?
Profile of O=c1c(Cl)c(N2CCCCC2)cnn1-c1nc2ccccc2[nH]1 = 1.3% | -1.4% | 16.4µM* | -1.6% | -11.2% | 18.7%

Additional structures
9) N#Cc1ccc(OCC(O)CN2CCN(CC(O)COc3ccc(C#N)cc3)CC2)cc1 (stereo not given)
10) COc1ccc(C[C@H](N)C(=O)N[C@H]2[C@@H](O)[C@H](n3cnc4c(N(C)C)ncnc43)O[C@@H]2CO)cc1
11) COc1cccc(-c2nc3cc4c(cc3cc2CN(C(=O)c2cccs2)C2CC2)CCC4)c1OC
12) CCCc1noc2c1/C(=N\O)CC(CC(C)SCC)C2 (stereo not given)
13) CCSC(C)CC1C/C(=N/O)c2c(CC)noc2C1 (stereo not given)
14) CCN(CC)C1CCN(C(=O)c2cnn(-c3nccc(-c4ccccc4OC)n3)c2-c2ccco2)C1 (stereo not given)
15) Cc1cccc(C(=O)N2CCN(c3ncnc4c3cnn4-c3ccccc3)CC2)c1
16) CCCNC(=O)c1cnn2c(C(F)F)cc(-c3ccccc3)nc12

assay / compound | 9 | 10 | 11 | 12 | 13 | 14 | 15 | 16
PTAP TSG101 blk | 0.0% | 0.5% | / | -1.3% | -6.6% | / | -1.8% | /
A549 viability | 3.3% | 1.46µM* | / | -8.5% | -5.2%[1.84 µM] | / | -15.3% | ?
Nrf2 inh | ? | 1.46µM* | / | ? | 23.1µM* | / | 18.4µM* | 23.1µM*
Nrf2 activator | 2.1% | -2.3% | / | -0.4% | -0.2% | / | 2.8% | -1.3%
Glioma ERSR ind | -1.5% | -3.5% | -0.1% | 5.4% | -3.1% | -5.2% | -3.8% | -0.2%
miR-21 FLuc | 0.3% | / | / | -17.6% | -5.8% | / | -0.7% | -0.1%

17) O=[N+]([O-])c1cc(CN2CCOCC2)c2cccnc2c1O
18) CN(Cc1cc([N+](=O)[O-])c2cccnc2c1O)C1CCCCC1
19) Oc1c(Cl)cc(CN2CCOCC2)c2cccnc12
20) O=[N+]([O-])c1cc(CN2CCN(c3ccccc3)CC2)c(O)c2ncccc12
21) O=C(CN1CCN(S(=O)(=O)c2ccc(Br)cc2)CC1)N/N=C/c1cc([N+](=O)[O-])ccc1Cl
22) O=C(CN1CCN(S(=O)(=O)c2ccc(Br)cc2)CC1)N/N=C/c1ccc(Cl)c([N+](=O)[O-])c1
23) COC(=O)C1CCN(Cc2ccc3c(c2)CN(C(=O)c2cc(C4CC4)on2)CCO3)CC1
24) Cc1cccc(NC2=C/C(=N/S(=O)(=O)c3cccs3)c3ccccc3C2=O)c1

assay / compound | 17 | 18 | 19 | 20 | 21 | 22 | 23 | 24
PTAP TSG101 blk | -0.1% | / | -3.1% | 0.2% | -1.2% | -7.1% | / | -3.8%
A549 viability | ? | / | ? | ? | 1.5% | -2.4% | / | ?
Nrf2 inh | 23.1µM* | / | ? | 2.59µM* | -0.3% | 11.9% | / | ?
Nrf2 activator | 0.6% | / | 8.3% | -1.2%[9.22 µM] | 12.6µM* | ? | / | 8.4%
Glioma ERSR ind | -1.2% | / | -2.7% | -3.4% | -2.0% | 3.6% | 0.2% | 5.5%
miR-21 FLuc | 5.2% | -4.9% | / | 26.9% | 1.4% | -1.9% | / | ?

25) Cc1ccc(NC2=C/C(=N\S(=O)(=O)c3cccs3)c3ccccc3C2=O)c(C)c1
26) Cc1ccc(Cl)cc1NC1=C/C(=N\S(=O)(=O)c2cccs2)c2ccccc2C1=O
27) O=C(C1CCC(CNS(=O)(=O)c2cccc3nsnc23)CC1)N1CCN(c2ccccn2)CC1 (stereo not given)
28) CN(Cc1ccccc1)C(=O)C1CCC(CNS(=O)(=O)c2cccc3cccnc23)CC1 (stereo not given)
29) CCCCN(C(=O)C1CCC(CNS(=O)(=O)c2cccc3nsnc23)CC1)c1ccccc1 (stereo not given)
30) Cc1cnc(-n2ncc(C(=O)NCCN3CCOCC3)c2C2CC2)nc1-c1cccs1
31) CC(C)(C)OC(=O)NCC(=O)NNC(=O)c1cc2ccccc2[nH]1
32) COC(c1ccc2c(c1)CN(C(=O)Cn1nc(C)c3ccccc3c1=O)CCO2)C1CCCCC1 (stereo not given)

assay / compound | 25 | 26 | 27 | 28 | 29 | 30 | 31 | 32
PTAP TSG101 blk | -10.4% | -1.3% | -2.9% | -4.9% | / | / | / | /
A549 viability | 18.4µM* | ? | -4.9% | 0.7% | -8.2% | / | 1.8% | /
Nrf2 inh | ? | 16.4µM* | 20.6µM* | 16.4µM* | 25.9µM* | / | 4.1% | /
Nrf2 activator | -2.3% | -2.9% | 6.4% | 5.0% | -0.5% | / | / | /
Glioma ERSR ind | -12.1% | -13.4% | -5.8% | -3.1% | -4.4% | -0.2% | / | -1.7%
miR-21 FLuc | ? | ? | 14.4% | 5.1% | 25.3% | / | / | /

33) Cc1cc(C)cc(C(=O)NCCn2cc(C(=O)N3CCSCC3)nn2)c1
34) CCS(=O)(=O)c1ncc(Cl)c(C(=O)N(Cc2ccccc2)c2ccc(OC)cc2)n1
35) CCS(=O)(=O)c1ncc(Cl)c(C(=O)N2CCN(c3ccc(OC)cc3)CC2)n1
36) Cc1nc(N2CCCCC2C)c2c(C)c(C(=O)Nc3cccc(C(F)(F)F)c3)sc2n1 (stereo not given)
37) Cc1nc(N2CCCCC2)c2c(C)c(C(=O)Nc3cccc(C(F)(F)F)c3)sc2n1
38) CN(C)c1ccc(/C=C/c2c(Br)cnc3ccccc23)cc1
39) CC(=O)Nc1ccc2nc(NC(=O)c3ccc([N+](=O)[O-])s3)sc2c1
40) Cc1nc2cc(NC(=O)c3ccc([N+](=O)[O-])s3)ccc2s1
41) O=C(N[C@@H]1c2ccccc2C2(CCN(C(=O)c3cc4ccccc4oc3=O)CC2)[C@H]1O)c1cccnc1
42) CCOc1c(Cl)cc(/C=N/NC(N)=S)cc1OC
43) Cc1sc2ccccc2[n+]1CCc1ccccc1

assay / compound | 33 | 34 | 35 | 36 | 37 | 38 | 39 | 40 | 41 | 42 | 43
PTAP TSG101 blk | / | / | / | 1.8% | -1.0% | / | / | 1.0% | / | -3.0% | /
A549 viability | / | ? | ? | -21.3% | -11.7% | / | / | -12.3% | / | 5.3% | /
Nrf2 inh | / | 23.1µM* | 20.6µM* | ? | 23.1µM* | / | / | 6.51µM* | / | 20.6µM* | /
Nrf2 activator | / | ? | -6.2% | 3.0% | -0.7% | / | / | 6.4% | / | 5.8% | /
Glioma ERSR ind | -0.2% | -10.8% | / | -3.4% | -1.4% | -0.6% | / | -9.9% | -5.7% | 0.4% | 1.8%
miR-21 FLuc | / | ? | ? | -0.4% | -6.0% | / | -19.9% | -18.1% | / | -1.1% | /
